Assay: Solubility observations during preparation
Conditions: about 50° C. to about 70° C.; water as solvent for some tests

## ytterbium (II) iodide
  solubility, effect of cyclodextrin inclusion and heating: increased

Source: US10670609B2, “Ytterbium as a surrogate cation to measure calcium flux” (Government of the United States, as represented by the …, priority 2017, dated 2020)
